Experimental data from patent US8450352B2, “Thiazole compounds and their use for inhibiting phosphodiesterase 4, TNF-α, and IL-4” (Otsuka Pharmaceutical Co., Ltd., priority 2004, dated 2013).

Sequences of proteins named here, by UniProt entry; tags and fusion partners are left off.
UniProt Q08499, whole entry: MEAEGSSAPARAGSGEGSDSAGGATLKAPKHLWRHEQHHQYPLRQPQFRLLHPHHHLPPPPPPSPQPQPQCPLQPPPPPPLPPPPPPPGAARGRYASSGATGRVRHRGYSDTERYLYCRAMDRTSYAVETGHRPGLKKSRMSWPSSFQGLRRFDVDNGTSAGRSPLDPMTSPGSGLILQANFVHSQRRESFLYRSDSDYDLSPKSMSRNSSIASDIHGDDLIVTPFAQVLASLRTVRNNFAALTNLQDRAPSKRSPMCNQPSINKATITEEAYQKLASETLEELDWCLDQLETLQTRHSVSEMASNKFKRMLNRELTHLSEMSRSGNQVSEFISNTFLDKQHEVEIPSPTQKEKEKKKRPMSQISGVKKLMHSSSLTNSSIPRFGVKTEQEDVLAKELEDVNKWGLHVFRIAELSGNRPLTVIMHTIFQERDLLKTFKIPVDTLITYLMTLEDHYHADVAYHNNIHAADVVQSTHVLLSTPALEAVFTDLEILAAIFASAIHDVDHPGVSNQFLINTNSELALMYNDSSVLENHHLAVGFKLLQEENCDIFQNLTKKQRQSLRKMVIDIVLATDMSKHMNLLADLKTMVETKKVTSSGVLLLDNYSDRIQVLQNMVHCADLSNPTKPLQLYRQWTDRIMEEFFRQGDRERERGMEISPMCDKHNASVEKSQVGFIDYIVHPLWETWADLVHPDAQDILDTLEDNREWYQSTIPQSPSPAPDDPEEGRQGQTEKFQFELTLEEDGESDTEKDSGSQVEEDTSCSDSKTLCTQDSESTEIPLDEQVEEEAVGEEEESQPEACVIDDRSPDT

Target: human PDE4D (HPDE4D) (Homo sapiens, UniProt Q08499)
Assay: Confirmatory test for phosphodiesterase (PDE) 4 inhibitory activity
Details: read-out: IC50 value; concentration that inhibits the PDE4 activity by 50%; PDE4D enzyme solution from transfected COS-7 cells, [3H]cAMP substrate

SMILES	IC50 [nM]
CCOc1ccc(-c2nc(CCC(=O)c3ncccc3C)cs2)cc1OCC	1.6
CCOc1ccc(-c2nc(CCC(=O)c3nccn3C)cs2)cc1OCC	15
CCOc1ccc(-c2nc(CCC(=O)c3cccn3C)cs2)cc1OCC	10
CCOc1ccc(-c2nc(CCC(=O)c3nc(C)cs3)cs2)cc1OCC	5.7
CCOc1ccc(-c2nc(CC(C(=O)OC)C(=O)c3ncccc3OC)cs2)cc1OCC (centres unmarked)	10
